{"source": "PubChem BioAssay AID1457", "about": "(National Center for Advancing Translational Sciences (NCATS), 2008)", "note": "The entries are a selection whose mix differs from that of the whole data set. Calls of active or inactive are those of the source. Calls follow the shape of the dose curve; as a rule, active = well fitted inhibition curve with a large enough effect; inconclusive = small, poorly fitted or top-dose-only effect; inactive = no such curve, though single readings can be large or run the other way."}
{"test": "qHTS Assay for Identifying the Cell-Membrane Permeable IMPase Inhibitors: Potentiation with Lithium;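 also: IP1 builds up when IMPase is blocked and the TR-FRET signal falls; plate controls were basal vehicle for no effect and high inhibitor control for full effect; nearly all actives have a fitted effect of over 50% in size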", "conditions": "CHO-M1 cells, IP1 TR-FRET (IP-One), carbachol + lithium; at 59.4 µM (top of the series) unless noted"}
{"smiles": "OCCSCCO", "activity, negative = IMPase inhibition": "inactive: 26.5%"}
{"smiles": "COc1ccccc1OP(C)(=O)Nc1c(C)n(C)n(-c2ccccc2)c1=O", "note": "(stereo unspecified)", "activity, negative = IMPase inhibition": "inactive: 0.348% [at 38.3 µM]"}
{"smiles": "CP(=O)(Nc1ccc(Cl)cc1)Oc1ccc(F)cc1", "note": "(stereo unspecified)", "activity, negative = IMPase inhibition": "inactive: 10.9% [at 38.3 µM]"}
{"smiles": "COc1ccccc1OP(C)(=O)Nc1ccccc1Br", "note": "(stereo unspecified)", "activity, negative = IMPase inhibition": "inactive: 8.96%"}
{"smiles": "CC(C)(C)c1ccc(OP(C)(=O)O)cc1", "activity, negative = IMPase inhibition": "inactive: 17.7% [at 38.3 µM]"}
{"smiles": "CN(C)C(=O)c1c([N+](=O)[O-])cc([N+](=O)[O-])cc1[N+](=O)[O-]", "activity, negative = IMPase inhibition": "inactive: 9.59%"}
{"smiles": "CP(=O)(OC12CC3CC(CC(C3)C1)C2)OC12CC3CC(CC(C3)C1)C2", "activity, negative = IMPase inhibition": "inactive: 3.09% [at 38.3 µM]"}
{"smiles": "CCOC(=O)c1ccc(NP(C)(=O)Oc2ccc(Cl)cc2)cc1", "note": "(stereo unspecified)", "activity, negative = IMPase inhibition": "inactive: 0.646%"}
{"smiles": "C/C1=C2N=C(/C=C3N=C(/C(C)=C4\\[N-][C@@](C)([C@H]5N=C1[C@@](C)(CCC(=O)NC[C@H](C)OP(=O)([O-])O[C@@H]1[C@H](O)[C@H](n6cnc7cc(C)c(C)cc76)O[C@@H]1CO)[C@@H]5CC(N)=O)[C@](C)(CC(N)=O)[C@H]4CCC(N)=O)[C@@](C)(CC(N)=O)[C@@H]\\3CCC(N)=O)C(C)(C)[C@@H]/2CCC(N)=O.[C-]#N.[Co+3]", "activity, negative = IMPase inhibition": "inactive: -6.12%"}
{"smiles": "Cc1cc(C)cc(OP(C)(=O)Nc2cccc(C(F)(F)F)c2)c1", "note": "(stereo unspecified)", "activity, negative = IMPase inhibition": "inactive: 5.86%"}
{"smiles": "COc1ccc(OP(C)(=O)Nc2ccccc2Br)cc1", "note": "(stereo unspecified)", "activity, negative = IMPase inhibition": "inactive: 2.26%"}
{"smiles": "Cc1nc2ccc3ccccc3c2o1.O=[N+]([O-])c1cc([N+](=O)[O-])c(O)c([N+](=O)[O-])c1", "activity, negative = IMPase inhibition": "inactive: 12.7% [at 38.3 µM]"}
{"smiles": "CP(=O)(Nc1ccc(Cl)cc1Cl)Oc1ccccc1", "note": "(stereo unspecified)", "activity, negative = IMPase inhibition": "inactive: -1.36%"}
{"smiles": "CP(=O)(OCCOc1ccccc1)OCCOc1ccccc1", "activity, negative = IMPase inhibition": "inactive: 8.63%"}
{"smiles": "CN(C)CCOC(=O)C(O)(c1ccccc1)C1CCCC1", "note": "(stereo unspecified)", "activity, negative = IMPase inhibition": "inactive: 42.7% [at 38.3 µM]"}
{"smiles": "COc1ccc(OP(C)(=O)Nc2ccccn2)cc1", "note": "(stereo unspecified)", "activity, negative = IMPase inhibition": "inactive: 0.188% [at 38.3 µM]"}
{"smiles": "Cc1c(NP(C)(=O)Oc2ccc(C(C)C)cc2)c(=O)n(-c2ccccc2)n1C", "note": "(stereo unspecified)", "activity, negative = IMPase inhibition": "inactive: 4.24% [at 38.3 µM]"}
{"smiles": "O=[N+]([O-])c1cc([N+](=O)[O-])c(Nc2ccccn2)c([N+](=O)[O-])c1", "activity, negative = IMPase inhibition": "inactive: 4.64%"}
{"smiles": "CCc1ccc(OP(C)(=O)O)cc1", "activity, negative = IMPase inhibition": "inactive: -14.9% [at 38.3 µM]"}
{"smiles": "COc1ccccc1OP(C)(=O)Nc1ccc(C)cc1C", "note": "(stereo unspecified)", "activity, negative = IMPase inhibition": "inactive: -4.12% [at 38.3 µM]"}
{"smiles": "CP(=O)(Nc1ccccn1)Oc1ccccc1", "note": "(stereo unspecified)", "activity, negative = IMPase inhibition": "inactive: 19.2% [at 38.3 µM]"}
